Measurements as given in PubChem BioAssay AID1477 (National Center for Advancing Translational Sciences (NCATS), 2009).
Only a part is listed here, and it is no random draw. Inconclusive results are not listed. Active and inactive are the calls of the source. The call rests on the fitted dose curve; in most records, active means well fitted curve in the direction sought with a large enough effect; inconclusive means small, poorly fitted or top-dose-only effect, or effect the other way, or another doubt; inactive means no such curve, though single readings can be large or run the other way.

By UniProt entry, the sequences of proteins in these tests, tags left out.
UniProt Q01196, whole entry partner: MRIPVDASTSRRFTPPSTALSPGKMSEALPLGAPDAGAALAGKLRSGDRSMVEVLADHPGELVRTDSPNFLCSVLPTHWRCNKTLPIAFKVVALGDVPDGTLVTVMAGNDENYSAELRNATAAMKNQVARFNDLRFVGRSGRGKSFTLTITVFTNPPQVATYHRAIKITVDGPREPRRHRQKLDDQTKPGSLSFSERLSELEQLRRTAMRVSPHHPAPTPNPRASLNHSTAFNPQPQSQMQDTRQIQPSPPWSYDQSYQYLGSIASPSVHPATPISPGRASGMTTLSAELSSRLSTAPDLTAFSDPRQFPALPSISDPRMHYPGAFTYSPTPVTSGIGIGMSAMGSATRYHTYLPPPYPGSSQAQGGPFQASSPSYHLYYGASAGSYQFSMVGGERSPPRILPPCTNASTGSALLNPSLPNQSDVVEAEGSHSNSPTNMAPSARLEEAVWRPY
UniProt Q13951, whole entry: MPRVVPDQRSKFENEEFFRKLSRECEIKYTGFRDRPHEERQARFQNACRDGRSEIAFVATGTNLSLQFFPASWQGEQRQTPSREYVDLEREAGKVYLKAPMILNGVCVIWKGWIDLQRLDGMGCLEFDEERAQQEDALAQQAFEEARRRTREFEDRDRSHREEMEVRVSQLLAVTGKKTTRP

Biological target: Runt-related transcription factor 1 (Homo sapiens) + Core-binding factor subunit beta (Homo sapiens) (UniProt Q01196+Q13951)
Test: qHTS Assay for Compounds Blocking the Interaction Between CBF-beta and RUNX1 for the Treatment of Acute Myeloid Leukemia; further: % of control where 0% means no effect
Details: AlphaScreen CBFb-His/RUNX1-biotin binding, biochemical

SMILES | activity, negative = inhibition (at 21.7 µM (top of the series)) | activity, negative = inhibition (at 59.8 µM (top of the series))
O=[N+]([O-])C(Cl)(Cl)Cl | inactive: 3.79% | –
CN(CCCl)CCCl | inactive: 1.81% | inactive: -4.99%
